Tested on: Glutamate NMDA receptor (Mus musculus)
Assay: compound was tested for effective dose against NMDA by intra peritoneal administration
Format: functional, organism-based

ED50: > 100 mg/kg
Structure (SMILES): O=C(CC1CCc2cc(Br)cc3[nH]c(=O)c(=O)n1c23)Nc1ccccc1 (stereo unspecified)
